# Measured values from ChEMBL document CHEMBL4303773 (Nature, 2020).
# Amino acid sequences for entries named in this document (tags omitted).
# UniProt Q5BJF2, whole entry: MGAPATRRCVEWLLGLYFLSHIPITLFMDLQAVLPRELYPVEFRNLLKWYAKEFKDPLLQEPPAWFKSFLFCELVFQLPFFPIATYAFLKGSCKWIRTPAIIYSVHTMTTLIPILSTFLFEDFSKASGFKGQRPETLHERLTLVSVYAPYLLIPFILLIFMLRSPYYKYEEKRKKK
# pKi: −log10 of the molar value.
# Molecular target: Sigma intracellular receptor 2 (Homo sapiens, UniProt Q5BJF2)
structure (smiles),measurement,value
COc1cccc2c1CCCC2CCCN1CCN(C2CCCCC2)CC1 (stereo unspecified),pKi,8.60
